Legend:
Cdc14A = Cdc14A (Homo sapiens, UniProt Q9UNH5); test: PTP activity assay with pNPP as substrate: Cdc14A; type: biochemical; details: read-out: IC50 for Cdc14A; pNPP as substrate at Km, pH 7.0, 25° C., I = 0.15 M
[1] = system: TCR-mediated tyrosine phosphorylation in Jurkat T cells; test: Anti-CD3 (TCR) induced tyrosine phosphorylation in Jurkat T cells, immunoblot; type: cell-based; details: 2-4 μM, 2 hours pretreatment, anti-CD3 stimulation
Procedure: (§1) Jurkat T cells were grown at 37° C. under an atmosphere of 5% CO2 in RPMI medium 1640 supplemented with 10% FBS. Cells were pretreated with different concentrations of TTN, TTN D-1, or TTM for 2 hours and stimulated with […] anti-CD3 antibody (OKT3; eBioscience) for 5 min and 30 min, respectively. Subsequently, cells were spinned down at 2000 rpm in 4° C., and cell pellets were lysed in 50 mM Tris-HCl (pH 7.5), 150 mM NaCl, 10% glycerol, 1% NP-40, 50 mM NaF, 10 mM pyrophosphate, 5 mM idoacetate, 1 mM sodium orthovanadate, and the protease inhibitor mixture. After 30 min lysing on ice, the cell lysates were centrifuged at 13,200 rpm for 15 min. Total cellular proteins were separated by SDS/PAGE and transferred electrophoretically to nitrocellulose membrane, which was immunoblotted by appropriate antibodies followed by incubation with HRP-conjugated secondary antibodies. Blots were developed using Pierce Pico ECL reagent (Thermo) according to the manufacturer's instructions.
(§2) TTN induces immunosuppression by suppression of TCR-mediated tyrosine phosphorylation and ERK1/2 activity in T cells (Shim et al., 2002). However, the mechanism of action for TTN's ability to block TCR signaling remains undefined. […]

Amino acid sequences for entries named in this document (tags omitted). Residues count along the entry.
UniProt Q9UNH5, whole entry: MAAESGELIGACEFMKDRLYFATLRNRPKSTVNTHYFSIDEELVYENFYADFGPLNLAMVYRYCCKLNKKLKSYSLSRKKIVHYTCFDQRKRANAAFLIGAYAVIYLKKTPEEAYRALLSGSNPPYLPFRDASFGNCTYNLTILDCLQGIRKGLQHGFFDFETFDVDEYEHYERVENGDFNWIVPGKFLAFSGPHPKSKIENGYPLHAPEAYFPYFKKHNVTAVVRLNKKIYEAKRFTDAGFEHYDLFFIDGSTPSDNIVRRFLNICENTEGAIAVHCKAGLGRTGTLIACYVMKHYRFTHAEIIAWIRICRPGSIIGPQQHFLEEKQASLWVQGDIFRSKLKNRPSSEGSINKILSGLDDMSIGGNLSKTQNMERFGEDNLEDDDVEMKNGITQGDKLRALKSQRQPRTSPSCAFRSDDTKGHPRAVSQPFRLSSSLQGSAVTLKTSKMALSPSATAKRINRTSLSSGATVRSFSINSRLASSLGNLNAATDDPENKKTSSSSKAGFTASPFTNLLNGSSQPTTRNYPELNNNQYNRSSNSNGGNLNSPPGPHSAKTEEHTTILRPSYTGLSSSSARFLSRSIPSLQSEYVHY
UniProt P08575, 26-1306 limits assumed: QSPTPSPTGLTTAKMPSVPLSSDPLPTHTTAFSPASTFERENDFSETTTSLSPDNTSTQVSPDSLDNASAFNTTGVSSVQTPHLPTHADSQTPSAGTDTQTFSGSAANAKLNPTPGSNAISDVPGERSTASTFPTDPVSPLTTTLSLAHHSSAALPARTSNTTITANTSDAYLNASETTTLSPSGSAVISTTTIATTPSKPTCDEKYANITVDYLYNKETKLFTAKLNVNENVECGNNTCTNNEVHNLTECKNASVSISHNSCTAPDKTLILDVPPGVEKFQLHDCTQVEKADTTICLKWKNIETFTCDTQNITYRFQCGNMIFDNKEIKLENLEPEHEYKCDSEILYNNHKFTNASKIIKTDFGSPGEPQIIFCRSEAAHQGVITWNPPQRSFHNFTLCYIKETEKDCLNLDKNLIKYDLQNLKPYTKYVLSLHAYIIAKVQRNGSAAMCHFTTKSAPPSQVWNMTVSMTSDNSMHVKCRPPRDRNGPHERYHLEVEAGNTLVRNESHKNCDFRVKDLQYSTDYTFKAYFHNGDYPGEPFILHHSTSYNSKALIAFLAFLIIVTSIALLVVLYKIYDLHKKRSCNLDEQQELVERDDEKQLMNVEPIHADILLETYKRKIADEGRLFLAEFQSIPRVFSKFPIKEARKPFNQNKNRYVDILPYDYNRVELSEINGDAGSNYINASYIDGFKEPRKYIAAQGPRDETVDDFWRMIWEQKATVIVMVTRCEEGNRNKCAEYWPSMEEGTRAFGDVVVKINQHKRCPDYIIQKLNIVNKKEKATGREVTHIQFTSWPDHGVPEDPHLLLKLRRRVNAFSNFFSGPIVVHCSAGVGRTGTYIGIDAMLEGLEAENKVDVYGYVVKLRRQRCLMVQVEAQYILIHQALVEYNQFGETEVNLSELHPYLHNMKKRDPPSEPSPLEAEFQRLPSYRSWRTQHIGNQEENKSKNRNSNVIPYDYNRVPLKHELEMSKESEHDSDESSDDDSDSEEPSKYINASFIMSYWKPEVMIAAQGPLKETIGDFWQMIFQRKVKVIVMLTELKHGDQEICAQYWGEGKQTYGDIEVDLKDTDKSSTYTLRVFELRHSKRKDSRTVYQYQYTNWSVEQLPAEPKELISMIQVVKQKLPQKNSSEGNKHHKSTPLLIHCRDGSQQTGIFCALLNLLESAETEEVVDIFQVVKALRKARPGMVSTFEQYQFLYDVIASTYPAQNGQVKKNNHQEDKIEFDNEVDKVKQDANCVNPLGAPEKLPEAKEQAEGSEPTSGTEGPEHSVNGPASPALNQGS
UniProt Q9Y2R2, whole entry: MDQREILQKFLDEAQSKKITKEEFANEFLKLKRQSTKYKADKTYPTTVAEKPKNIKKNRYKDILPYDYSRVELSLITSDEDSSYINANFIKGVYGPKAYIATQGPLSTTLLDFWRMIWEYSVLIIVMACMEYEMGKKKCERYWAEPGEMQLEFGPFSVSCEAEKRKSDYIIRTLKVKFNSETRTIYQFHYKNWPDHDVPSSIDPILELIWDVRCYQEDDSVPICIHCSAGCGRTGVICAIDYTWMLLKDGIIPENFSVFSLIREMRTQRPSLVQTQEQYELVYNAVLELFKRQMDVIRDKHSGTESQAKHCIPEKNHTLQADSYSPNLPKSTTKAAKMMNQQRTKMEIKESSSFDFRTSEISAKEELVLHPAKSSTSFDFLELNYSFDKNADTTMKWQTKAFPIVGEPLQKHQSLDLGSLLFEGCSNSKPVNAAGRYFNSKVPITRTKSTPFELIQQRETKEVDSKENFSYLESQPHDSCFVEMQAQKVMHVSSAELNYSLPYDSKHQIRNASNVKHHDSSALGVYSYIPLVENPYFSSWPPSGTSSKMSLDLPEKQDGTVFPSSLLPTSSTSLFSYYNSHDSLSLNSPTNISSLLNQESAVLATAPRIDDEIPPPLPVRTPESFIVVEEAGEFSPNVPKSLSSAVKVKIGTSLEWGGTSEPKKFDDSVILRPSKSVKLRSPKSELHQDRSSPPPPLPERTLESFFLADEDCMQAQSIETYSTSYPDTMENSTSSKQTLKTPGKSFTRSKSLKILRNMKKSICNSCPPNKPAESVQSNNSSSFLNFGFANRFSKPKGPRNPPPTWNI
UniProt Q06124, 262-528 limits assumed: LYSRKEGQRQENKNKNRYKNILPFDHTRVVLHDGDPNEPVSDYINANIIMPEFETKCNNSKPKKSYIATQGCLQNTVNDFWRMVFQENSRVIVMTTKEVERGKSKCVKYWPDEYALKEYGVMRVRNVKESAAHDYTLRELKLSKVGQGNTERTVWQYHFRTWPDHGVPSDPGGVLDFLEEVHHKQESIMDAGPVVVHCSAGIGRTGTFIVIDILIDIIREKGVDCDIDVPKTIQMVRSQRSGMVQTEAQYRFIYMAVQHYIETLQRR
UniProt P35236, whole entry: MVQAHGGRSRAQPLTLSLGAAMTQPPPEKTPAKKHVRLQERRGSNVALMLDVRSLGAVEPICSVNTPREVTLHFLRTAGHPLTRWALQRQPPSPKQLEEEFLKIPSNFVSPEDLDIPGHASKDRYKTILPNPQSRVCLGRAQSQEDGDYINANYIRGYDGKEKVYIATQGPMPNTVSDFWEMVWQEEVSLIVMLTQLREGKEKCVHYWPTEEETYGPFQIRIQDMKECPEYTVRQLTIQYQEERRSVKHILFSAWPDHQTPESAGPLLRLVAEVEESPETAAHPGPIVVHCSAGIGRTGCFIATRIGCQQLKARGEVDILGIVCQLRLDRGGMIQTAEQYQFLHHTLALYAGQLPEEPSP
UniProt P18433, 20-802 limits assumed: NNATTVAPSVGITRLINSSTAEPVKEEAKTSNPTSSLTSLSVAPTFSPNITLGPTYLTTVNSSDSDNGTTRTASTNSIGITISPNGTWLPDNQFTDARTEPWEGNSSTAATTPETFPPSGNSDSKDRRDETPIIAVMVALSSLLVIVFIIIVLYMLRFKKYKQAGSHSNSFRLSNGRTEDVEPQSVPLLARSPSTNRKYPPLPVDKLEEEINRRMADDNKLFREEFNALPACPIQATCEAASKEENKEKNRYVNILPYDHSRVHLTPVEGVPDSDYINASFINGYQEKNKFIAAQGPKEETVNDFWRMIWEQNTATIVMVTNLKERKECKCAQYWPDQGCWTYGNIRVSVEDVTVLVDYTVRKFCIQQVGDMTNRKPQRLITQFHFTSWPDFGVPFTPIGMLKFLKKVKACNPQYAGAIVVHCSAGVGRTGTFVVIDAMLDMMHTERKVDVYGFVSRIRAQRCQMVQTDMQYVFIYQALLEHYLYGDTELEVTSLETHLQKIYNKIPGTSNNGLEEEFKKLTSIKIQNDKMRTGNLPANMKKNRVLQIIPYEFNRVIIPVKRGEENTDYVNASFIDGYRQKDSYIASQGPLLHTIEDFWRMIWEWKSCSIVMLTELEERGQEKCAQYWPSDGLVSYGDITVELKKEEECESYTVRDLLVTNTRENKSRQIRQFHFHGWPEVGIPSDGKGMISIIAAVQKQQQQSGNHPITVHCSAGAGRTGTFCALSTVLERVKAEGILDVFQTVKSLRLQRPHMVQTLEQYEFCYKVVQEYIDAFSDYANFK
UniProt P51452, whole entry: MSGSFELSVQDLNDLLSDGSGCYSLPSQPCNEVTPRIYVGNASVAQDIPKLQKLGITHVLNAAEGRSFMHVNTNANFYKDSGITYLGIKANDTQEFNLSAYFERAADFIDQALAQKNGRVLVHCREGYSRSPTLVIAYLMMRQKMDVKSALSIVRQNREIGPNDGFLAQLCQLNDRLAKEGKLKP

CD45 = CD45 (Homo sapiens, UniProt P08575); test: PTP activity assay with pNPP as substrate: CD45; type: biochemical; details: read-out: IC50 for CD45; pNPP as substrate at Km, pH 7.0, 25° C., I = 0.15 M
Lyp = Lyp (Homo sapiens, UniProt Q9Y2R2); test: PTP activity assay with pNPP as substrate: Lyp; type: biochemical; details: read-out: IC50 for Lyp; pNPP as substrate at Km, pH 7.0, 25° C., I = 0.15 M
SHP2 = SHP2 (Homo sapiens, UniProt Q06124); test: Ki measurement, steady-state kinetic analysis of SHP2-catalyzed pNPP hydrolysis; type: biochemical; details: Lineweaver-Burk, FIG. 2
HePTP = HePTP (Homo sapiens, UniProt P35236); test: PTP activity assay with pNPP as substrate: HePTP; type: biochemical; details: read-out: IC50 for HePTP; pNPP as substrate at Km, pH 7.0, 25° C., I = 0.15 M
PTPα = PTPα (Homo sapiens, UniProt P18433); test: PTP activity assay with pNPP as substrate: PTPα; type: biochemical; details: read-out: IC50 for PTPα; pNPP as substrate at Km, pH 7.0, 25° C., I = 0.15 M
[2] = system: TCR-mediated ERK1/2 activation in Jurkat T cells; test: Anti-CD3 (TCR) induced ERK1/2 activation in Jurkat T cells, immunoblot; type: cell-based; details: 2 hours pretreatment, anti-CD3 stimulation
Procedure: as §1, §2

VHR = VHR (Homo sapiens, UniProt P51452); test: PTP activity assay with pNPP as substrate: VHR; type: biochemical; details: read-out: IC50 for VHR; pNPP as substrate at Km, pH 7.0, 25° C., I = 0.15 M

## CCC(/C=C/C(=O)O)=C\CC[C@H](C)C[C@@H](C)CC[C@H](O)[C@H](C)C(=O)C[C@@H](O)[C@H](C)[C@@H](C)OC(=O)C[C@@H](O)C1=C(C)C(=O)OC1=O
Cdc14A
  IC50: > 50 µM
[1]
  effect on TCR-mediated tyrosine phosphorylation: blocked
CD45
  IC50: > 50 µM
Lyp
  IC50: > 50 µM
SHP2
  mode of inhibition of the SHP2-catalyzed reaction: competitive inhibitors
HePTP
  IC50: > 50 µM
PTPα
  IC50: > 50 µM
[2]
  effect on TCR-mediated ERK1/2 activation: strongly reduced
VHR
  IC50: > 50 µM

Source: patent publication US8637684B2, “Tautomycetin and tautomycetin analog biosynthesis” (Wisconsin Alumni Research Foundation, priority 2010, dated 2014)
